{"sequences": {"note": "The chains behind the UniProt entries cited, without tags or fusion partners. Where a name states a change or a piece, a line headed by the entry shows the natural chain unless it says otherwise.", "UniProt Q12809": "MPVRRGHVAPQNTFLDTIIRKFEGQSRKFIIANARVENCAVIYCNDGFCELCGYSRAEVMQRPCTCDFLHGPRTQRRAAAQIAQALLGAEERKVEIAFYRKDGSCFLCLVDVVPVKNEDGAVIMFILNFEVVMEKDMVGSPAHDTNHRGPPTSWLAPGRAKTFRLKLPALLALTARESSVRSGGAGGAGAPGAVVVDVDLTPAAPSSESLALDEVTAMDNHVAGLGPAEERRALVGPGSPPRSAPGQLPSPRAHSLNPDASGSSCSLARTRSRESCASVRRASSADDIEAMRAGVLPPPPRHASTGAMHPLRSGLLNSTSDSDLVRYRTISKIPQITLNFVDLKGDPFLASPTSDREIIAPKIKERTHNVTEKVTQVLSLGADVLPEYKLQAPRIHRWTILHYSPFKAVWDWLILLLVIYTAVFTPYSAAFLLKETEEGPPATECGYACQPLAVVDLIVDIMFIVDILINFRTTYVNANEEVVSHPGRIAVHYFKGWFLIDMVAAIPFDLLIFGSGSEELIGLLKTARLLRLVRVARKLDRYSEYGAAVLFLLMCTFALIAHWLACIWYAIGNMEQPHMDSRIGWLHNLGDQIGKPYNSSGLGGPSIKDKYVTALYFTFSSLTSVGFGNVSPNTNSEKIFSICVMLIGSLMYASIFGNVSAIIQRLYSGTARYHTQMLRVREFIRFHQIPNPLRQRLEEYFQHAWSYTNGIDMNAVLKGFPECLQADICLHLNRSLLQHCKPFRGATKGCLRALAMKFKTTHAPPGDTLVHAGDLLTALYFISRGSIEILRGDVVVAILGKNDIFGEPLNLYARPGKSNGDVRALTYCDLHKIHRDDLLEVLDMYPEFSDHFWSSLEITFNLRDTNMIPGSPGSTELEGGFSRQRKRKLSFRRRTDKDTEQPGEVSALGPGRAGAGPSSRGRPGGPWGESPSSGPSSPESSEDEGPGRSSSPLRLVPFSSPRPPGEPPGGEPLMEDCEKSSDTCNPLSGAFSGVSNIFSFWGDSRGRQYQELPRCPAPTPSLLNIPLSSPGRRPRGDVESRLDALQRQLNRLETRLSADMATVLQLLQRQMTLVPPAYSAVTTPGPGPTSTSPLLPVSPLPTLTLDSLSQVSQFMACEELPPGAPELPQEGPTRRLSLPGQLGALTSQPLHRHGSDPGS"}, "source": "patent US9796687B2", "about": "“S-substituted quinazolines and their therapeutic applications for the treatment of diseases mediated by PDE7” (Consejo Superior De Investigaciones Cientificas (CSIC), priority 2016, dated 2017)", "origin": "cited, not measured here", "target": "hERG channel (Homo sapiens (Human), UniProt Q12809)", "settings": "read-out: hERG IC50 of positive controls; cited from earlier work"}
{"smiles": "CC(C)COCC(CN(Cc1ccccc1)c1ccccc1)N1CCCC1", "note": "(stereo not shown) [bepridil]", "values": [{"measurement": "IC50", "result": 1.4, "unit": "µM"}]}
